Target: Neuronal acetylcholine receptor subunit alpha-4 (Gallus gallus, UniProt P09482+P09484)
Experiment: Binding affinity to recombinant Gallus gallus (chicken) alpha4beta2 nicotinic acetylcholine receptor assessed as [3H]NIC binding by radioligand binding assay

Chains of the proteins cited; added tags and fusions are not shown. Lines headed by an entry give the natural chain unless they say otherwise; changes in a name come on top.
UniProt P09482: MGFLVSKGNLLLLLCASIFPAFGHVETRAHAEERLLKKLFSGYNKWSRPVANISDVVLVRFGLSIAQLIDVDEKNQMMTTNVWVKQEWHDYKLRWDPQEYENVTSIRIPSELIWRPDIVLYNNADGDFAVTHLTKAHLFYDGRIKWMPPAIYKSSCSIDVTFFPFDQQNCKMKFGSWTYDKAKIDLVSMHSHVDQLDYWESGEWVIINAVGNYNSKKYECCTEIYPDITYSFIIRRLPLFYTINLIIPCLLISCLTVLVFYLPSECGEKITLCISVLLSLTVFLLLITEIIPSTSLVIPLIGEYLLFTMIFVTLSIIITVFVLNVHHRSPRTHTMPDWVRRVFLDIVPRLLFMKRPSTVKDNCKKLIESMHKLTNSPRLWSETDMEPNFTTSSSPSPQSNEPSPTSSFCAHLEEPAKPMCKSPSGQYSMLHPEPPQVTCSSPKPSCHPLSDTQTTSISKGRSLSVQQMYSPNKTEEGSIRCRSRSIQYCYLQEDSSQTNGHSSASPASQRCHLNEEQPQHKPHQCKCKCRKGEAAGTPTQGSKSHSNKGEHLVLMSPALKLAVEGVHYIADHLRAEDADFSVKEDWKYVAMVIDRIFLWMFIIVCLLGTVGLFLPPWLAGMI
UniProt P09484: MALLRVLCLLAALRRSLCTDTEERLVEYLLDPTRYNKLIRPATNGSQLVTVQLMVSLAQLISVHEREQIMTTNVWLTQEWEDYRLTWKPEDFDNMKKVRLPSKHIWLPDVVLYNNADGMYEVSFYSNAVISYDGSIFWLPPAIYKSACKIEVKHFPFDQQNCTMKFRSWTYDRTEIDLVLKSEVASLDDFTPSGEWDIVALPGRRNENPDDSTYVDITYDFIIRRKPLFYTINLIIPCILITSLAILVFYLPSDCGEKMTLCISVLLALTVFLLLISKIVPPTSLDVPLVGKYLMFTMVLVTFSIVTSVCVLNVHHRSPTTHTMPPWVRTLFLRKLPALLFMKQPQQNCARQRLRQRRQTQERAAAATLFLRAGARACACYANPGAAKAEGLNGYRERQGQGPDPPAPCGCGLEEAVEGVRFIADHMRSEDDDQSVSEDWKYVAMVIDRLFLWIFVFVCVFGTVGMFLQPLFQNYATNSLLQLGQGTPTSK

**Q.** With Clc1ccc(C2CC3CCC2N3)cn1 (racemic) [EPIBATIDINE] as the compound, how does the Ki read?
**A.** 0.01 nM
